# Tested on: C57BL/6J mice
# Test: Opioid antagonist activity of 1968-22 against opioid agonists (tail-withdrawal assay)
# Details: 2.5 h pretreatment, 0.3 nmol i.c.v.; U50,488 10 mg/kg, i.p.
compound,measurement,value
Cc1cc(O)cc(C)c1C[C@H]1CN([C@@H](Cc2c(C)cc(O)cc2C)CN2C(=N)NC[C@@H]2C)C(=N)N1 [1968-22],"antagonism of U50,488-induced antinociception",did not have an effect

# — PMC9455983 (International Journal of Molecular Sciences, 2022)
